# Measured affinities in a library of Ab-95 light chain variants

Values reported by Engelhart et al. 2022, doi:10.1038/s41597-022-01779-4 (FLAb copy).

All variants were tested on one target, the spike HR2 peptide PDVDLGDISGINAS (SARS-CoV-2).

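Library AAYL52 holds single substitutions and randomly drawn double and triple substitutions in the CDRs. The assay is AlphaSeq: two haploid yeast populations carry antibody and antigen on their surface. Binding brings cells together so that they mate, and sequencing counts the barcode pairs among the diploids. Each replicate has its own calibration line, from reference interactions of the BCL2 family. Mating was done three times.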

Parent: Ab-95, a human scFv built as VH, a 15-residue (Gly4Ser)3 linker, VL. Only the CDRs of the light chain vary.
VH: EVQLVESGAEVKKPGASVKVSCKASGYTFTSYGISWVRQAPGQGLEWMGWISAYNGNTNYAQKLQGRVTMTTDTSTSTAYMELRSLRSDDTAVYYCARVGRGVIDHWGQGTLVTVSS
VL: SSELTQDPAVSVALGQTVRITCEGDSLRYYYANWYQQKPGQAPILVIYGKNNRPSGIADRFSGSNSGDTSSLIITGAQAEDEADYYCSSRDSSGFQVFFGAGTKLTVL

The parent's light chain CDRs are EGDSLRYYYAN, GKNNRPS, SSRDSSGFQVF; each variant's own CDRs replace them letter for letter.
Affinities are written as log10 Kd with Kd in nM; a lower number is a better binder.
A mean of the replicates is given; it leaves out those without a signal.
"ND" means that the variant was in the library but no mating with the target was seen in that replicate; the authors take this as a sign of poor binding, and no number exists.
Background: pairings of library AAYL52 with three empty control strains gave a value in 28% of cases (median 3.91, 5th percentile 2.90). Values in that range, when seen in few replicates, are hard to tell from nonspecific mating. Also given: how often the same scFv was detected with the empty control strains, with their mean in brackets.

CDR-L1,CDR-L2,CDR-L3,"replicates, log10 nM","mean, log10 nM",empty controls
EGDSLRYTYAN,GLTNRPS,SSRDSSGFQVF,2.66 2.22 2.74,2.54,3/9 (4.72)
EGDNLRYYYAN,GKNNRPS,SSRDESGGQVF,3.38 5.54 ND,4.46,1/9 (3.97)
EGSSLRYYYAN,GKNNRHR,SSRDSSGFQVF,3.00 3.37 2.97,3.11,3/9 (4.32)
EGDSLRYYKAN,GKNNRPS,SSRDSSFFQFF,2.64 2.67 2.49,2.60,3/9 (4.10)
EGDSLRDYYEN,GKNNNPS,SSRDSSGFQVF,ND 3.58 ND,3.58,3/9 (3.84)
EGDSLRIYYAN,GKNNRPS,KSRDSSGFQVA,ND 2.88 3.65,3.26,1/9 (3.89)
EGDSLGYYYAN,GKNNRPS,SSRGSSGFQVF,2.62 2.77 2.77,2.72,2/9 (4.01)
EGDTLRYYYAN,GKNNRPS,SSFDISGFQVF,4.00 ND 4.13,4.06,1/9 (3.35)
ENDSLRYYYAN,GKNNRPS,SSRDSDGFQVG,4.02 ND 4.50,4.26,3/9 (3.82)
EGDSLRYNYAN,GKNNRPS,GSRDSSGFQVH,0.80 0.65 0.10,0.52,2/9 (3.96)
EGFSLFYYPAN,GKNNRPS,SSRDSSGFQVF,2.52 2.69 2.37,2.53,4/9 (3.73)
EEDSLRYYYAN,GKNNMPS,SSRDSSGFQGF,4.70 5.25 ND,4.97,5/9 (3.83)
FGDSHRYYYAN,QKNNRPS,SSRDSSGFQVF,3.84 ND ND,3.84,4/9 (4.24)
EGDSLRYYYAK,GKNNRPS,SSRDSNVFQVF,ND 4.37 ND,4.37,2/9 (4.11)
AGDTLRYYYAN,GKNYRPS,SSRDSSGFQVF,3.52 4.68 3.68,3.96,4/9 (3.99)
EGHSLRYYYAN,GKNNRPS,SSRDSDRFQVF,2.21 3.15 ND,2.68,1/9 (3.48)
EGDYLRPYYAN,GKNNRPS,SSRISSGFQVF,1.68 1.48 0.71,1.29,5/9 (4.34)
EGDSKRYYYAN,GKNNRPS,SARDSSGMQVF,3.32 2.61 3.33,3.09,1/9 (4.31)
EMDSLRYDYAR,GKNNRPS,SSRDSSGFQVF,2.37 2.19 2.28,2.28,2/9 (3.77)
EGDSLRYYYYN,GKNNRPS,SSRSSSGFQVF,3.40 4.59 ND,4.00,7/9 (4.41)
EGDSLRTYRAW,GKNNRPS,SSRDSSGFQVF,2.89 3.08 3.80,3.26,1/9 (3.79)
EGDSLRYYYAN,GKNNAPS,SSRDSSGGQVK,ND ND ND,ND,4/9 (3.67)
EGDSLRYWYAN,GKNNQPS,SSRDSSGFWVF,ND ND ND,ND,1/9 (3.67)
EGDSLEYYYLN,TKNNRPS,SSRDSSGFQVF,ND 3.21 4.06,3.63,3/9 (3.68)
EGISLRYYYAN,GKNNRPS,YSRDSMGFQVF,ND ND ND,ND,3/9 (3.68)
EGDSLRYYYAN,GKHNRPS,DSRDSSSFQVF,3.41 3.23 3.17,3.27,0/9
EGDSLRYYHSN,GKNNRPS,SSRDSSGFQVF,2.31 2.14 2.39,2.28,0/9
TGDSLWYYYAN,GKNNRPS,SSRMSSGFQVF,2.73 ND ND,2.73,1/9 (3.63)
EGDSLRYYYAN,GKNNRDS,STRDSSGFQVS,3.15 ND 2.91,3.03,4/9 (4.05)
EGDSLRGYYAN,GKNNRPS,SCRDFSGFQVF,1.40 1.54 1.09,1.35,2/9 (3.86)
EGDDLCYYYAN,GKNNRPS,SSRDSSGFLVF,3.25 ND ND,3.25,0/9
EGDSLRYYYAN,GKNNMPS,NSRDSSGFQVN,ND 3.77 ND,3.77,1/9 (3.97)
EADSLRYYYAN,GKNARPS,SSRDSAGFQVF,4.04 3.81 ND,3.92,4/9 (3.90)
EGDSLRYYYWN,GKNNRPS,SWRDSSGFQVF,ND ND ND,ND,1/9 (3.28)
EGDSLRYYYAG,GKNNRPS,SSRDSSCFQRF,ND ND ND,ND,3/9 (4.08)
EGDSLRYNYAY,GKNNRPS,SSEDSSGFQVF,ND ND ND,ND,1/9 (2.79)
EGDSLRYYYQN,DKNNRPS,SSRDSSGFQVF,ND ND ND,ND,0/9
EFDSLIYYYAI,GKNNRPS,SSRDSSGFQVF,2.99 2.19 2.03,2.40,3/9 (3.64)
EGDSLRYYYAN,VVNNRPS,SSRDSSGFQVF,4.23 ND 3.95,4.09,3/9 (4.12)
EGDSLRYYLVN,GKNNRPS,SSRDSSGFGVF,3.68 2.88 4.19,3.58,4/9 (4.42)
EGDHLRYYYAN,GKNNRGS,SSRDSSGFQVF,2.48 3.04 2.66,2.73,3/9 (3.95)
WGDSLRYYYAN,GKNNMPS,SSRVSSGFQVF,ND ND 4.42,4.42,2/9 (4.33)
EGDSLRYYYAN,GKNNRPS,SSRDSGGQHVF,2.80 3.12 2.83,2.92,4/9 (3.87)
EGDSLRYYYAN,DKNNRPS,SSRDSYGFHVF,2.91 2.78 2.92,2.87,2/9 (3.56)
EGDSLRYYYAA,GKNNRPS,SSRDTSGFQFF,3.24 ND ND,3.24,1/9 (4.04)
EGDRLRYYYAN,GKNNDPS,QSRDSSGFQVF,ND ND ND,ND,0/9
EGDSNRYYYAN,GKNERPS,SSRDSSGFQVF,2.38 2.70 3.61,2.90,4/9 (3.67)
EGDSLRYYYAN,GRNNRPR,SSRDSSFFQVF,3.52 4.35 3.51,3.79,1/9 (2.65)
EGDSLRYYYAN,GKNNRPS,SARCSSGFQVF,2.63 2.49 2.55,2.56,3/9 (3.79)
EGDSLRQYYAN,GKNNRPS,SSRKSSGFQVF,ND ND ND,ND,0/9
EGDSLRYYYVN,GKNNRGS,SSRDSSHFQVF,3.07 2.54 2.24,2.62,3/9 (3.82)

Repeated from above, the 6 best binders with a signal in all replicates:

CDR-L1,CDR-L2,CDR-L3,"replicates, log10 nM","mean, log10 nM",empty controls
EGDSLRYNYAN,GKNNRPS,GSRDSSGFQVH,0.80 0.65 0.10,0.52,2/9 (3.96)
EGDYLRPYYAN,GKNNRPS,SSRISSGFQVF,1.68 1.48 0.71,1.29,5/9 (4.34)
EGDSLRGYYAN,GKNNRPS,SCRDFSGFQVF,1.40 1.54 1.09,1.35,2/9 (3.86)
EMDSLRYDYAR,GKNNRPS,SSRDSSGFQVF,2.37 2.19 2.28,2.28,2/9 (3.77)
EGDSLRYYHSN,GKNNRPS,SSRDSSGFQVF,2.31 2.14 2.39,2.28,0/9
EFDSLIYYYAI,GKNNRPS,SSRDSSGFQVF,2.99 2.19 2.03,2.40,3/9 (3.64)